How the values were obtained:
activated MEK1 = activated MEK1 (Homo sapiens, UniProt Q02750); assay: MEK Lance Ultra experiment; type: biochemical; details: read-out: MEK potency IC50; 0.07 nM activated MEK1, 2 nM non-activated ERK, 50 μM ATP
Method: Biological Test Method 1: MEK Lance Ultra Experiment Compounds were serially diluted three-fold to 10 concentrations, two duplicates were set. Final test concentrations of the compounds ranged from 10 μM to 0.51 nM. 0.07 nM activated MEK1 (Millipore #14-429) and 2 nM non-activated ERK (Millipore #14-515) were mixed with the compounds or DMSO, the mixture was incubated at 23° C. for 30 minutes. Then 50 nM ULight labeled MBP (PerkinElmer #TRF0109-M) and 50 μM ATP (Invitrogen #PV3227) were added to initiate the reaction, and the mixture was incubated at 23° C. for 90 minutes. After the reaction was stopped by adding EDTA at a final concentration of 15 mM, 2 nM Eu-labeled anti-phosphorylated antibody (PerkinElmer #TRF0201-M) was added and incubated for 1 hour. The fluorescence signal data (excitation band: 320 nm; emission band: 665 nM/615 nM) was determined by an Envision microplate reader (PerkinElmer). XLfit5 software was used for data analysis and mapping.

Chains of the proteins cited; added tags and fusions are not shown.
UniProt Q02750, whole entry: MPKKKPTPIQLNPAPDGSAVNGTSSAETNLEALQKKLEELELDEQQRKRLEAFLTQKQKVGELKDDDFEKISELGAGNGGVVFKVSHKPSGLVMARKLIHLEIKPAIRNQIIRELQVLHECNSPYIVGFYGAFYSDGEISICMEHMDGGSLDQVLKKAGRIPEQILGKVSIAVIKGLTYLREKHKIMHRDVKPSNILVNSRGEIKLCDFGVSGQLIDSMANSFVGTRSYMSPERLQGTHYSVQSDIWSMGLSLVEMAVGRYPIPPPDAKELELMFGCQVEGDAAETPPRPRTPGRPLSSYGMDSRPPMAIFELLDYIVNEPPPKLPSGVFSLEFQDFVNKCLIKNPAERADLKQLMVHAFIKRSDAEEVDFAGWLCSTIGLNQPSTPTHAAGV

HT29 cells = assay: Cell viability experiment (Cell Titer-Glo), HT29; details: read-out: HT29 IC50, 3 days incubation
Method: (§1) Biological Test Method 2: Cell Viability Experiment
(§2) HT29 and A375 cells were plated in a 96-well cell culture plate at a density of 40,000 cells/well and 20,000 cells/well respectively, and the cells were cultured overnight. The compounds were serially diluted in a gradient of 1:3, the dilutions were added to the cell culture medium, and incubated with the cells in a 37° C. incubator for 3 days. The 96-well cell culture plate was taken from the incubator and equilibrated at room temperature for 30 minutes, then Cell Titer-Glo reagent (Promega Cat #G7573) was added at a ratio of 1:2, and the mixture was mixed thoroughly on a shaker for 2 minutes to promote cell lysis. The cell culture plate was incubated at room temperature for 10 minutes and then read on an Envision microplate reader (PerkinElmer). XLfit5 software was used for data analysis and mapping.

A375 cells = assay: Cell viability experiment (Cell Titer-Glo), A375; details: read-out: A375 IC50, 3 days incubation
Method: as §1, §2

- IC50 (activated MEK1): 70.5 nM
- IC50 (HT29 cells): 11.2 nM
- IC50 (A375 cells): 3.2 nM
Structure (SMILES): COCC(=O)Nc1cccc(-c2c(C)n(C3CC3)c(=O)c3c(Nc4ccc(I)cc4F)c(C)c(=O)oc23)c1

— patent US11021486B2, “Coumarin-like cyclic compound as MEK inhibitor and use thereof” (CSTONE PHARMACEUTICALS, priority 2017, dated 2021)
